Protein sequences, listed by entry. Tags and fused reporters are not part of them.
UniProt Q86WV6, whole entry, looked up, stated change not applied: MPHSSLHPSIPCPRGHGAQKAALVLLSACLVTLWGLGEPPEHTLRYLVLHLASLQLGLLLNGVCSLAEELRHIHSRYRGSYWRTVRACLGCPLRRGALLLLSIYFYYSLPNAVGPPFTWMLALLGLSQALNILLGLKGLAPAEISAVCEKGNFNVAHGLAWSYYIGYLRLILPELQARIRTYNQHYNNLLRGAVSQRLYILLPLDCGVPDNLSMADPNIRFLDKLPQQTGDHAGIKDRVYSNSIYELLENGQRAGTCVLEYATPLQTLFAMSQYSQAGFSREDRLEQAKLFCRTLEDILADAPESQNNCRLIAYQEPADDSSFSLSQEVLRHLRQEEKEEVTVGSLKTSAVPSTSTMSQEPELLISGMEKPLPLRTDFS

In ChEMBL document CHEMBL5380856, “Development of Orally Bioavailable Amidobenzimidazole Analogues Targeting Stimulator of Interferon Gene (STING) Receptor” (J Med Chem, 2023):

Experiments:
[1] = test system: Stimulator of interferon genes protein (Homo sapiens), Q86WV6 [UNDEFINED MUTATION]; test: Binding affinity to human STING H232 variant incubated for 30 mins by thermal shift assay; conditions: filed as agonist
[2] = species on record: Homo sapiens; test: Binding affinity to human STING G230A-R293Q variant incubated for 30 mins by thermal shift assay; conditions: filed as agonist
[3] = test system: Stimulator of interferon genes protein (Homo sapiens), Q86WV6 [UNDEFINED MUTATION]; test: Binding affinity to His-tagged wild type human STING R232 variant C-terminal domain (149 to 379 residues) expressed in Escherichia coli BL21 (DE3) cells incubated for 30 mins by thermal shift assay; conditions: filed as agonist
[4] = molecular target: T1, Stimulator of interferon genes protein (Mus musculus) (UniProt Q3TBT3); test: Binding affinity to mouse STING incubated for 30 mins by thermal shift assay; conditions: filed as agonist
T1 sequence (whole entry): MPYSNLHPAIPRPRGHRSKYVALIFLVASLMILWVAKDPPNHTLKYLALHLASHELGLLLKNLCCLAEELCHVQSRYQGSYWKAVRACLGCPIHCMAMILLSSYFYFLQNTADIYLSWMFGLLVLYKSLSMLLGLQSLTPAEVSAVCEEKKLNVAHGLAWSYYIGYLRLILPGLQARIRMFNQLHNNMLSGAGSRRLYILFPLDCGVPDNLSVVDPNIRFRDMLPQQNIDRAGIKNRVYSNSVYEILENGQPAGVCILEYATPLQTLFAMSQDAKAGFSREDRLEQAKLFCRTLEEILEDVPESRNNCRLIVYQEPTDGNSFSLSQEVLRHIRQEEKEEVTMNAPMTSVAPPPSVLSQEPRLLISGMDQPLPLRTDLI

[5] = molecular target: T2, Stimulator of interferon genes protein (Homo sapiens, UniProt Q86WV6); test: Activation of STING signalling pathway in human THP-1 cells assessed as increase in IRF3 phosphorylation measured after 3 hrs by Western blot analysis; format: cell-based; conditions: filed as activator, dose 2-8 µM
[6] = molecular target: T2, Stimulator of interferon genes protein; test: Activation of STING signaling pathway in human THP-1 cells assessed as increase in CXCL10 mRNA level incubated for 24 hrs by qRT-PCR analysis; format: cell-based; conditions: filed as activator, dose 2-8 µM
[7] = molecular target: T2, Stimulator of interferon genes protein; test: Activation of STING signaling pathway in human THP-1 cells assessed as increase in IFN-beta mRNA level at 10 uM measured after 5 hrs by qRT-PCR analysis; format: cell-based; conditions: filed as activator
[8] = molecular target: T2, Stimulator of interferon genes protein; test: Activation of STING signalling pathway in human THP-1 cells assessed as increase in TBK1 phosphorylation measured after 3 hrs by Western blot analysis; format: cell-based; conditions: filed as activator, dose 2-8 µM
[9] = molecular target: T2, Stimulator of interferon genes protein; test: Activation of STING signalling pathway in human THP-1 cells assessed as increase in IRF3 phosphorylation at 10 uM measured after 3 hrs by Western blot analysis; format: cell-based; conditions: filed as activator
[10] = molecular target: T2, Stimulator of interferon genes protein; test: Activation of STING signaling pathway in human THP-1 cells assessed as increase in CXCL10 mRNA level at 10 uM measured after 24 hrs by qRT-PCR analysis; format: cell-based; conditions: filed as activator
[11] = molecular target: T1, Stimulator of interferon genes protein (Mus musculus); test: Activation of STING signalling pathway in mouse RAW264.7 cells assessed as increase in CXCL10 mRNA level at 50 uM incubated for 24 hrs by qRT-PCR analysis; format: cell-based; conditions: filed as activator
[12] = molecular target: T2, Stimulator of interferon genes protein; test: Activation of STING signalling pathway in human THP-1 cells assessed as increase in STING phosphorylation at 10 uM measured after 3 hrs by Western blot analysis; format: cell-based; conditions: filed as activator
[13] = molecular target: T1, Stimulator of interferon genes protein (Mus musculus); test: Activation of STING signalling pathway in mouse RAW264.7 cells assessed as increase in IFN-beta mRNA level at 50 uM incubated for 12 hrs by qRT-PCR analysis; format: cell-based; conditions: filed as activator
[14] = test system: CT26; test: Antitumor activity against mouse CT26 cells implanted in BALB/c mouse assessed as suppression of tumor growth at 0.25 mg/kg, iv administered on days 1,3, 5 and 8; format: functional, organism-based; conditions: time 8.0 day
[15] = molecular target: T2, Stimulator of interferon genes protein; test: Activation of STING signalling pathway in human THP-1 cells assessed as increase in TBK1 phosphorylation at 10 uM measured after 3 hrs by Western blot analysis; format: cell-based; conditions: filed as activator
[16] = test system: CT26; test: Antitumor activity against mouse CT26 cells implanted in BALB/c mouse assessed as suppression of tumor growth at 5 mg/kg, IG administered on days 1,3, 5 and 8; format: functional, organism-based; conditions: time 8.0 day
[17] = molecular target: T2, Stimulator of interferon genes protein; test: Activation of STING signaling pathway in human THP-1 cells assessed as increase in IFN-beta mRNA level incubated for 3 hrs by qRT-PCR analysis; format: cell-based; conditions: filed as activator, dose 2-8 µM
[18] = test system: CT26; test: Antitumor activity against mouse CT26 cells implanted in BALB/c mouse assessed as suppression of tumor growth at 1 mg/kg, ip administered on days 1,3, 5 and 8; format: functional, organism-based; conditions: time 8.0 day
[19] = molecular target: T2, Stimulator of interferon genes protein; test: Activation of STING signalling pathway in human THP-1 cells assessed as increase in STING phosphorylation measured after 3 hrs by Western blot analysis; format: cell-based; conditions: filed as activator, dose 2-8 µM

Measured: Activity

CCn1nc(C)cc1C(=O)Nc1nc2cc(C(N)=O)cc(OC)c2n1CCCNc1ncc(-c2ccccc2)o1
active: [1] | [2] | [3] | [4]

CCn1nc(C)cc1C(=O)Nc1nc2cc(C(N)=O)cc(OC)c2n1CCCNc1ncc(-c2ccccc2C(F)(F)F)o1
active: [5] Dose-Dependent Effect | [6] Dose-Dependent Effect | [7] | [8] Dose-Dependent Effect | [9] | [10] | [11] | [12] | [13] | [14] | [15] | [16] | [17] Dose-Dependent Effect | [18] | [19] Dose-Dependent Effect

CCn1nc(C)cc1C(=O)Nc1nc2cc(C(N)=O)cc(OC)c2n1CCCNc1ncc(-c2ccccc2C)o1
active: [5] Dose-Dependent Effect | [6] Dose-Dependent Effect | [7] | [8] Dose-Dependent Effect | [9] | [10] | [11] | [12] | [13] | [15] | [17] Dose-Dependent Effect | [19] Dose-Dependent Effect

Calls of active or inactive are those of the source.
